Screening data deposited in PubChem BioAssay by several laboratories.
HDAC3 inh – HDAC3 deacetylase inhibitors, primary screen, biochemical, fluorescence, cell-free homogeneous | inhibition, % at 8.3 µM | Histone deacetylase 3 (Homo sapiens), O15379 | recombinant HDAC3, fluorogenic peptide/trypsin coupled | actives 0.15% (n = 320,000) | AID 2718, 2010; in the data active means inhibition above about 26%, passing the limit was not always enough; inconclusive means no clear call, values can overlap the other calls
ALR H2O2 inh – human ALR oxidase inhibition via reduced H2O2; P55789; 290,000 tested, 3.8% active; inhibition, % (no concentration beside the values); purified ALR, DTT oxidation, H2O2 HRP-luminol luminescence; AID 485317;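 active = mean and each replicate at 75% or more; inconclusive = only one of the two met; inactive = neither met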;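 note: stock transfer was 7.5 nL into about 7.5 µL; 0% = neutral wells and 100% = wells with inactivated enzyme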
NALP1 inh – NALP1 inflammasome inhibitors in reconstituted yeast, colorimetric, S. cerevisiae, triplicate retest; S. cerevisiae NALP1/ASC/caspase-1 growth, X-gal OD620, 72 h; inhibition, % at 10 µM; AID 2071, 2009; actives 0.61% (n = 280,000); in the data active means inhibition mostly above about 24%, no sharp cut-off; inactive means mostly below about 32%
MC4R ag barr – MC4R agonists recruiting beta-arrestin, primary screen, cell-based, luminescence, agonist arm of biased-ligand search; U2OS MC4R beta-arrestin complementation; percent of melanotan II response, DMSO zero; AID 540308, 2011; actives 0.98% (n = 360,000); activation, % at 8.9 µM;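 active means activation above a per-plate cutoff, the mean activation of sample wells on that plate plus 3 SD, cut at about 8% in these data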
MC4R antag cAMP – MC4R antagonists of cAMP signaling, primary screen, cell-based, TR-FRET, antagonist arm of biased-ligand search. Melanocortin receptor 4 (Homo sapiens), P32245. MC4R-expressing cells, MTII-stimulated cAMP, LANCE TR-FRET. inhibition, % at 6.5 µM. actives 0.48% (n = 360,000). AID 540295, 2011;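 active means inhibition above its plate's cutoff, the mean of tested wells on that plate plus 3 SD, cut at about 29% in these data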;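 further: 0% = Melanotan II alone and 100% = Melanotan II plus saturating MCL0020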
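Test system: U2OS cells stably expressing human melanocortin 4 receptor (MC4R); also added: Melanotan II challenge; compound: 6.5 µM single dose; timing: 30-min compound preincubation, 1-h Melanotan II challenge, 1-h detection, room temperature; signal: Eu-cAMP/anti-cAMP TR-FRET, emission 671 nm; repeats: one well per compound, no replicates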
UUG fidelity – modulators of yeast start codon fidelity, primary screen, whole organism, S. cerevisiae, single point, plate reader | AID 602363, 2012 | actives 0.13% (n = 350,000) | activity score, % at 18.7 µM | S. cerevisiae UUG-firefly luciferase reporter, luminescence/redox ratio;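 active means replicate mean at a twofold rise or more, about +100% in these data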;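 further: firefly luciferase made from a UUG start codon reports start codon fidelity; reporter light over untreated wells divided by growth signal over untreated wells; some hits fall short of that in this replicate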
* = called active by the depositor; ? = inconclusive; . = not tested or not shown. Only some compounds are listed: those with a hit (about 4.2% of all), similar ones and a draw of the others.

Protein sequences, listed by entry. Tags and fused reporters are not part of them.
Melanocortin receptor 4 (Homo sapiens), P32245, UniProt P32245, whole entry, looked up: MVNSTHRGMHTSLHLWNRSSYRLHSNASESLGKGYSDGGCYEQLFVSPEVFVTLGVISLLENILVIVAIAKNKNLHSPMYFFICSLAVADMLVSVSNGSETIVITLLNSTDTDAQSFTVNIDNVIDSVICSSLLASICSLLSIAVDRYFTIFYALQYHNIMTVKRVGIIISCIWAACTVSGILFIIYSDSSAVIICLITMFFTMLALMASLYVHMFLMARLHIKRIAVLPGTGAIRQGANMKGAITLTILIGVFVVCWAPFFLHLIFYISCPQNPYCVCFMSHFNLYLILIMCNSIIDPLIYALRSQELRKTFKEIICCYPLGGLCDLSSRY

(1) COc1ccc(O)c(/C=N/NC(=O)c2cc(=O)[nH]c3ccccc23)c1
(2) O=C(N/N=C/c1ccccc1)c1cc(=O)[nH]c2ccccc12
(3) C[C@H](CO)N1C[C@H](C)[C@H](CN(C)C(=O)Nc2ccccc2)Oc2ncc(Br)cc2C1=O
(4) COCCCn1c(-c2ccc(Cl)cc2)n[nH]c1=S
(5) C=CCn1c(-c2cc(Cl)ccc2OC)n[nH]c1=S
(6) CCn1c(-c2cc(Cl)ccc2OC)n[nH]c1=S

| Screen / compound no. | 1 | 2 | 3 | 4 | 5 | 6 |
| --- | --- | --- | --- | --- | --- | --- |
| HDAC3 inh | 12.4 | -2.6 | . | 5.0 | 3.7 | -1.4 |
| ALR H2O2 inh | 31.3 | 25.5 | . | 94.8* | 41.5 | 92.2* |
| NALP1 inh | 44.9* | 28.3 | . | 8.1 | 3.6 | 1.2 |
| MC4R ag barr | -2.3 | 0.9 | . | 4.1 | -2.2 | -2.9 |
| MC4R antag cAMP | -15.6 | 1.5 | . | -4.1 | 7.5 | 9.0 |
| UUG fidelity | . | -13.3 | 4.6 | -13.2 | . | -23.1 |

(7) COc1ccc(Cl)cc1-c1nc(SCC(=O)N(C)C)n[nH]1
(8) CCOCCCn1c(-c2ccc(Cl)cc2)n[nH]c1=S
(9) CCn1c(-c2cc(OC)c(OC)c(OC)c2)n[nH]c1=S
(10) COc1ccc(Cl)cc1-c1n[nH]c(=S)n1C
(11) O=C(c1cccc(F)c1)N1CCCCN2[C@H](CO)[C@@H](c3ccc(-c4ccc(F)cc4)cc3)[C@@H]2C1
(12) COc1ccc(-c2ccc([C@H]3[C@H](C#N)N(C(=O)NC4CCCC4)[C@H]3CO)cc2)cc1

| Screen / compound no. | 7 | 8 | 9 | 10 | 11 | 12 |
| --- | --- | --- | --- | --- | --- | --- |
| HDAC3 inh | -0.5 | 9.5 | -0.4 | -2.8 | . | . |
| ALR H2O2 inh | . | 22.5 | 96.8* | 89.3* | . | . |
| NALP1 inh | 6.0 | 0.6 | -4.6 | 29.8 | . | . |
| MC4R ag barr | -0.7 | -1.6 | -1.6 | 1.5 | . | . |
| MC4R antag cAMP | 9.6 | 8.8 | 10.2 | 13.0 | . | . |
| UUG fidelity | . | -13.8 | -4.7 | -7.9 | -8.7 | 2.6 |

(13) NC(=O)COc1ccccc1C(=O)O
(14) Cc1ccc(NC(=O)c2ccc(Br)o2)c([N+](=O)[O-])c1
(15) NS(=O)(=O)c1ccc(NNC(=O)c2ccc(Br)o2)c([N+](=O)[O-])c1
(16) C[C@@H]1CCCCO[C@H](CN(C)CC2CCCCC2)[C@@H](C)CN([C@@H](C)CO)C(=O)c2cc(NS(=O)(=O)c3cn(C)cn3)ccc2O1
(17) CN1CCN(C(=O)C[C@H]2CC[C@@H]3[C@H](COC[C@H](O)CN3Cc3ccc4c(c3)OCO4)O2)CC1
(18) CN(C)c1ccc(NC(=O)c2ccc(N3CCOCC3)nc2)cc1

| Screen / compound no. | 13 | 14 | 15 | 16 | 17 | 18 |
| --- | --- | --- | --- | --- | --- | --- |
| HDAC3 inh | 4.8 | . | -2.5 | . | . | 3.2 |
| ALR H2O2 inh | 87.4* | . | 86.3* | . | . | 99.7* |
| NALP1 inh | 4.2 | . | . | . | . | 10.5 |
| MC4R ag barr | 1.8 | -1.2 | -3.4 | . | . | -0.9 |
| MC4R antag cAMP | 17.7 | 8.2 | -20.9 | . | . | -14.2 |
| UUG fidelity | . | -3.9 | -9.2 | 3.0 | -11.6 | -10.8 |

(19) COc1ccc(NC(=O)c2ccc(N3CCOCC3)nc2)cc1
(20) CN1CCN(c2ccc(NC(=O)c3ccc(Cl)cc3)cn2)CC1
(21) Cc1ccc(C(=O)Nc2ccc(N3CCOCC3)nc2)cc1
(22) Cc1cccc(C(=O)Nc2scc(-c3ccc(Br)cc3)c2C(=O)O)c1
(23) Cc1ccc(-c2csc(NC(=O)/C=C/c3ccco3)c2C(=O)O)cc1
(24) Cc1ccc(-c2csc(NC(=O)c3ccc(Br)cc3)c2C(=O)O)cc1

| Screen / compound no. | 19 | 20 | 21 | 22 | 23 | 24 |
| --- | --- | --- | --- | --- | --- | --- |
| HDAC3 inh | -5.6 | 2.7 | -1.0 | -10.4 | 4.1 | 8.7 |
| ALR H2O2 inh | -2.5 | 94.0* | -20.5 | -1.8 | 97.2* | -1.9 |
| NALP1 inh | 3.5 | 17.2 | -2.8 | . | 8.7 | 61.3* |
| MC4R ag barr | -3.4 | -2.0 | -1.2 | -1.6 | -2.2 | -1.2 |
| MC4R antag cAMP | -0.3 | 3.1 | 5.2 | 1.1 | -1.8 | 1.9 |
| UUG fidelity | 4.2 | . | -18.8 | -7.4 | 42.4 | . |

(25) O=C(/C=C/c1ccco1)Nc1sc2c(c1C(=O)O)CCC2
(26) O=C(Nc1scc(-c2ccc(F)cc2)c1C(=O)O)c1ccco1
(27) N#Cc1c(SCC(=O)Nc2ccc(C(F)(F)F)cc2)sc2c(O)cc(=O)[nH]c12
(28) Cc1cc(=O)[nH]c(SCC(=O)Nc2ccc(Br)cc2)c1C#N
(29) Cc1cc(=O)[nH]c(SCC(=O)Nc2ccc3c(c2)CCC3)c1C#N
(30) Cc1ccc(NC(=O)CSc2sc3c(O)cc(=O)[nH]c3c2C#N)c(F)c1

| Screen / compound no. | 25 | 26 | 27 | 28 | 29 | 30 |
| --- | --- | --- | --- | --- | --- | --- |
| HDAC3 inh | 10.6 | 5.2 | -2.2 | ? | -3.7 | 5.6 |
| ALR H2O2 inh | 97.6* | 87.7* | 95.1* | 98.9* | 48.6 | 54.8 |
| NALP1 inh | -0.8 | -0.7 | -3.1 | -2.9 | . | 10.7 |
| MC4R ag barr | 0.2 | -0.9 | -0.8 | -1.1 | -0.4 | 0.7 |
| MC4R antag cAMP | -1.4 | 16.2 | 2.4 | 3.4 | -1.6 | -0.7 |
| UUG fidelity | . | 12.8 | -14.1 | -6.5 | -11.5 | -6.5 |

(31) Cc1cc(=O)[nH]c(SCC(=O)Nc2ccc(F)cc2)c1C#N
(32) Cc1cc(Nc2n[nH]c(N)c2C#N)ccc1F
(33) CCCC(=O)Nc1ccc2c(c1)C(=O)N(C)[C@H]1CC[C@@H](CC(=O)NCC3CCCCC3)O[C@@H]1CO2
(34) Cc1noc(C)c1S(=O)(=O)N1CCC(C(=O)NC2CCN(Cc3ccccc3)CC2)CC1
(35) COC(=O)C(C)Sc1ncnc2c1nnn2-c1ccc(F)cc1 (stereo unspecified)
(36) COc1ccc(S(=O)(=O)Nc2cccc3c2O[C@@H](CN(C)Cc2ccc(Cl)c(Cl)c2)[C@@H](C)CN([C@@H](C)CO)C3=O)cc1

| Screen / compound no. | 31 | 32 | 33 | 34 | 35 | 36 |
| --- | --- | --- | --- | --- | --- | --- |
| HDAC3 inh | 11.3 | 3.8 | . | 0.4 | -1.5 | . |
| ALR H2O2 inh | 91.3* | 95.0* | . | 0.2 | 97.6* | . |
| NALP1 inh | -9.0 | 10.0 | . | 39.2* | -3.1 | . |
| MC4R ag barr | 0.4 | 2.6 | . | -0.3 | -2.2 | . |
| MC4R antag cAMP | -1.9 | 4.9 | . | 0.3 | 12.6 | . |
| UUG fidelity | -13.5 | . | 26.1 | -9.9 | 5.9 | -4.4 |

Fetched by compound from the list above (3):
(32) Cc1cc(Nc2n[nH]c(N)c2C#N)ccc1F
(35) COC(=O)C(C)Sc1ncnc2c1nnn2-c1ccc(F)cc1 (stereo unspecified)
(33) CCCC(=O)Nc1ccc2c(c1)C(=O)N(C)[C@H]1CC[C@@H](CC(=O)NCC3CCCCC3)O[C@@H]1CO2

| Screen / compound no. | 32 | 35 | 33 |
| --- | --- | --- | --- |
| HDAC3 inh | 3.8 | -1.5 | . |
| ALR H2O2 inh | 95.0* | 97.6* | . |
| NALP1 inh | 10.0 | -3.1 | . |
| MC4R ag barr | 2.6 | -2.2 | . |
| MC4R antag cAMP | 4.9 | 12.6 | . |
| UUG fidelity | . | 5.9 | 26.1 |

The list continues.
(37) CC(=O)N[C@H]1CC[C@H](CCNC(=O)Nc2ccc(C(F)(F)F)cc2)O[C@H]1CO
(38) Cc1nn(-c2cc(N3CCCCC3)ccc2N)c(=O)c2ccccc12
(39) Cc1nn(-c2cc(N3CCCCCC3)ccc2[N+](=O)[O-])c(=O)c2ccccc12
(40) Cc1ccc(C(=O)c2c(NC(=O)c3cccnc3)sc3c2CCCC3)cc1
(41) Cc1cc(C(=O)Nc2sc3c(c2C#N)CCCC3)no1
(42) N#Cc1c(NC(=O)c2ccccc2)sc2c1CCCCC2

| Screen / compound no. | 37 | 38 | 39 | 40 | 41 | 42 |
| --- | --- | --- | --- | --- | --- | --- |
| HDAC3 inh | . | 2.8 | 6.6 | ? | 9.7 | -1.2 |
| ALR H2O2 inh | . | 99.1* | -7.2 | 94.6* | 96.8* | -24.5 |
| NALP1 inh | . | -10.1 | 6.7 | 7.9 | -12.6 | 9.0 |
| MC4R ag barr | . | -2.0 | -2.3 | 0.8 | -3.7 | 8.3* |
| MC4R antag cAMP | . | 8.7 | 1.5 | -4.9 | 12.5 | -0.9 |
| UUG fidelity | 3.8 | . | -12.5 | -2.0 | -12.0 | -25.4 |

(43) N#Cc1c(NC(=O)C(=O)NCCCN2CCOCC2)sc2c1CCCC2
(44) Cc1ccc(C(=O)Nc2sc3c(c2C#N)CCCCC3)cc1C
(45) COC(=O)c1c(NC(=O)C(=O)NCCCN2CCOCC2)sc2c1CCC2
(46) O=C(CCN1CCCCC1)N[C@@H]1CC[C@H](CCn2cc(-c3ccc(F)cc3)nn2)O[C@H]1CO
(47) C=CC[C@H](CC(=O)N(CCO)Cc1ccccc1)C(=O)N[C@@H](COC(=O)[C@@H](CC=C)CC(=O)OC(C)(C)C)Cc1c[nH]c2ccccc12

| Screen / compound no. | 43 | 44 | 45 | 46 | 47 |
| --- | --- | --- | --- | --- | --- |
| HDAC3 inh | -4.2 | -4.3 | 2.5 | . | 39.9* |
| ALR H2O2 inh | 96.3* | . | 44.3 | . | -3.4 |
| NALP1 inh | 19.5 | 9.8 | 7.4 | . | . |
| MC4R ag barr | -0.9 | 0.5 | -1.6 | . | 0.7 |
| MC4R antag cAMP | 5.8 | 5.8 | -0.2 | . | 17.9 |
| UUG fidelity | -4.4 | -14.6 | -10.0 | -7.2 | -13.8 |
